BindingDB's records for PubMed 11082457 (Centre De Recherches De Croissy, 2000)

By UniProt entry, the sequences of proteins in these tests, tags left out.
UniProt P15823, whole entry: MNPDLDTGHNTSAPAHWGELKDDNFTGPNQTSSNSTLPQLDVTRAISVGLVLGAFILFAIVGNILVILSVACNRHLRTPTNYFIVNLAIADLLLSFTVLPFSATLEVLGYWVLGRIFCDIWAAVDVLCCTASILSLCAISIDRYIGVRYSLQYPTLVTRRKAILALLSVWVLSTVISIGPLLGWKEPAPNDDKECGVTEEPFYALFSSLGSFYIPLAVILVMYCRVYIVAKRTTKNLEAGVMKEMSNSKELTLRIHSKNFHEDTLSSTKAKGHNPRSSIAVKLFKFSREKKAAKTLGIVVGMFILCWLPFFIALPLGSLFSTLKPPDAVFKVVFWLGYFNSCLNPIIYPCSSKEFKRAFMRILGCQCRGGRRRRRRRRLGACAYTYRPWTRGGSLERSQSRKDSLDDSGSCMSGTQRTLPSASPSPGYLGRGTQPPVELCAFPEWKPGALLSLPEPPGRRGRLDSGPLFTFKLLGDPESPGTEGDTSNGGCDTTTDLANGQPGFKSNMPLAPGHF

How the values were obtained:
[1] = biological target: T1, Alpha-1A adrenergic receptor (Rattus norvegicus, UniProt P43140)
T1 sequence (P43140 whole entry): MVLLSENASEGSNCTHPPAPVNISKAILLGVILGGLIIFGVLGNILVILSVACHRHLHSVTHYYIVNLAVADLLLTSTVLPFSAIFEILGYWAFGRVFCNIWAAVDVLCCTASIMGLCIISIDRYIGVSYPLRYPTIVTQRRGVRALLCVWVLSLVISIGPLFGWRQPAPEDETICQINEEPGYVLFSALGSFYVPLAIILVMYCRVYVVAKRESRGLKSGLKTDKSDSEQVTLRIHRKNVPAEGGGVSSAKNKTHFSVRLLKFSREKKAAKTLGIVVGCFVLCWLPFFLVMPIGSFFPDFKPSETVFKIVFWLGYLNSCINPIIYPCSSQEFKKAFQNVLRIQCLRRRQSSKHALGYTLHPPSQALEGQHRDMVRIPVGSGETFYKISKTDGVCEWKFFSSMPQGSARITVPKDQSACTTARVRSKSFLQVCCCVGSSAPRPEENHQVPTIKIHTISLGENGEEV

[2] = biological target: Alpha-1B adrenergic receptor (Rattus norvegicus, UniProt P15823)

Clc1cccc(Cl)c1N=C1NCCN1 [2-(2,6-dichloroanilino)-2-imidazoline]
Ki [1]: 100 nM | Ki [2]: 316 nM
